In publication PMC10531824:

Columns and labels:
Assay in all cases: Ellman assay, probit analysis
Conditions in all cases: read-out: I50; covalent; crude homogenate; 30 min preincubation at 25 °C; acetylthiocholine substrate, pH 7.4
[1] = system: Phyllotreta striolata AChE
Propylea japonica AChE = system: Propylea japonica AChE
Pteromalus puparum AChE = system: Pteromalus puparum AChE
Cotesia plutellae AChE = system: Cotesia plutellae AChE
Prodenia litura AChE = system: Prodenia litura AChE
Plutella xylostella AChE = system: Plutella xylostella AChE

## CCOP(=O)(OCC)Oc1ccc([N+](=O)[O-])cc1
[1]
  IC50: 327 nM
Propylea japonica AChE
  IC50: 98.5 nM
Pteromalus puparum AChE
  IC50: 77.7 nM
Cotesia plutellae AChE
  IC50: 72.1 nM
Prodenia litura AChE
  IC50: 446 nM
Plutella xylostella AChE
  IC50: 5880 nM

## CCOC(=O)CC(SP(=O)(OC)OC)C(=O)OCC (stereo not drawn)
[1]
  IC50: 1730 nM
Propylea japonica AChE
  IC50: 942 nM
Pteromalus puparum AChE
  IC50: 388 nM
Cotesia plutellae AChE
  IC50: 521 nM
Prodenia litura AChE
  IC50: 1400 nM
Plutella xylostella AChE
  IC50: 10600 nM
